According to PubChem BioAssay AID538 (PCMD, 2006):
This is a selection; strong and weak results do not stand in their true shares. The source made the active and inactive calls.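 Rule for the calls: active = inhibition above 20% in each of the two 10-compound mixture wells holding the compound; inactive = the rest.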

Protein sequences, listed by entry. Tags and fused reporters are not part of them. Residues count along the entry.
UniProt P09871, 16-437 limits assumed: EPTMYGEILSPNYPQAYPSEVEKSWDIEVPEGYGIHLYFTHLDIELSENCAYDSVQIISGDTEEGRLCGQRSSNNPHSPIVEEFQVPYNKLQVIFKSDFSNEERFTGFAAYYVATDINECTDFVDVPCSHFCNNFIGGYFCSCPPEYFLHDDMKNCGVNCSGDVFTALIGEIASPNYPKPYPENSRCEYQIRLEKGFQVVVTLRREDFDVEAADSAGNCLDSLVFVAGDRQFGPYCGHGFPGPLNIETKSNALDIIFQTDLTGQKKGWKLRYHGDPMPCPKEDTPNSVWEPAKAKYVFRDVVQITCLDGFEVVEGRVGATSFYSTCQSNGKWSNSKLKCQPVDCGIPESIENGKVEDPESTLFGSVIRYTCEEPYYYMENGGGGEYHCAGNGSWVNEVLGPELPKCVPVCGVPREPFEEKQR
UniProt P09871, 438-688 limits assumed: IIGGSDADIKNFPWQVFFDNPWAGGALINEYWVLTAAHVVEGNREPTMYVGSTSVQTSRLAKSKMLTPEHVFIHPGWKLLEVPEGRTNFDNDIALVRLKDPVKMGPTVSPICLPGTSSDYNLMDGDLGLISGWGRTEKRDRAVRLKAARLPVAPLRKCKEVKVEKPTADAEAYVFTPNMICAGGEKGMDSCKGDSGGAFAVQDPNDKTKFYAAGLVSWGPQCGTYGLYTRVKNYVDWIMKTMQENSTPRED

molecular target: Complement C1s subcomponent (Homo sapiens) (UniProt P09871); experiment: human C1s inhibition by compound pools – biochemical, 10-compound mixtures, primary screen (AID 538); details: purified C1s, fluorogenic AMC substrate, pooled mixtures; screened at 5 µM (by protocol);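 note: 0% = enzyme wells lacking compound mixture and 100% = no-enzyme blank wells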

Q: How did the mean inhibition % of two 10-compound mixtures (stronger effect = higher value) turn out when `N/C(=N\O)c1c(N)no[n+]1[O-]` was run?
A: inactive: -1.81%

Q: How did the mean inhibition % of two 10-compound mixtures (stronger effect = higher value) turn out when `Fc1ccccc1NC1CCN(Cc2ccccc2)CC1` was run?
A: inactive: -1.82%

Q: For `CCC(CO)(C(=O)OC1CN2CCC1CC2)c1ccccc1` (configuration not stated), which mean inhibition % of two 10-compound mixtures (stronger effect = higher value) is on record?
A: inactive: -20.9%

Q: For `CCOc1ncccc1C(=O)NCC1(N2CCOCC2)CCCCC1`, which mean inhibition % of two 10-compound mixtures (stronger effect = higher value) is on record?
A: inactive: 41.7%

Q: Which mean inhibition % of two 10-compound mixtures (stronger effect = higher value) does the source give for `O=C(OC1CN2CCC1CC2)C1c2ccccc2Oc2ccccc21` (configuration not stated) here?
A: inactive: 5.25%

Q: With `COc1ccc(NC2CCN(CCc3ccccc3)CC2)c(OC)c1` as the molecule, how does the mean inhibition % of two 10-compound mixtures (stronger effect = higher value) read?
A: inactive: 14.8%

Q: For `N#CC1(Nc2ccccc2)CCN(CCc2ccccc2)CC1`, which mean inhibition % of two 10-compound mixtures (stronger effect = higher value) is on record?
A: inactive: 6.54%
